From patent US20080161309A1, “Novel Compounds” (priority 2004, published 2008) come the findings set out here.

Chains of the proteins cited; added tags and fusions are not shown.
UniProt P23975, whole entry: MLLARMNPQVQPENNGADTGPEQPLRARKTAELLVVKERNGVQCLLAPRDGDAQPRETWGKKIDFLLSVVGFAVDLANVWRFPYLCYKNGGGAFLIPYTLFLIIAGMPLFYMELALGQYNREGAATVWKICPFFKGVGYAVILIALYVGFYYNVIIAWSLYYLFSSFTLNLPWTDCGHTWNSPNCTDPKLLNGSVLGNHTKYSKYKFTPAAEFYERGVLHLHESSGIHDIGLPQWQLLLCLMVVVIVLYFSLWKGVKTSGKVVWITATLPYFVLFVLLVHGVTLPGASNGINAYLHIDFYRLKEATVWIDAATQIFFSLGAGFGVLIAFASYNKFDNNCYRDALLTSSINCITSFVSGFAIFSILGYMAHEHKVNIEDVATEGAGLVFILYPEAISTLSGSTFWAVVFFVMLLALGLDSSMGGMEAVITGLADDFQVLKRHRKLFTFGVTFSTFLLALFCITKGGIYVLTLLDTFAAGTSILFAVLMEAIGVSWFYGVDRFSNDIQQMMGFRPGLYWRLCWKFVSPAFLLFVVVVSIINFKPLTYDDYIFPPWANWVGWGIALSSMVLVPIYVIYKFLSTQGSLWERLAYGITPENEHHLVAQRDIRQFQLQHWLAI

As usually defined, the Ki is a dissociation constant, usually derived from enzyme kinetics or from competition with a known ligand.

Where a name gives a salt, the structure may show the parent alone.

The target of this experiment is T1, human norepinephrine transporter (hNET) (Homo sapiens, UniProt P23975).
T1 construct: expressed in transfected cells; host or cells: HEK-293, membranes
Nature of the experiment: hNET receptor binding, [125I]-RTI-55, HEK-293 membranes. The note with it: Cheng-Prusoff, read-out: NET Ki. Here is the method:
Cell pastes of HEK-293 cells transfected with a human norepinephrine transporter cDNA were prepared. The cell pastes were resuspended in 400 to 700 ml of Krebs-HEPES assay buffer (25 mM HEPES, 122 mM NaCl, 3 mM KCl, 1.2 mM MgSO4, 1.3 mM CaCl2, and 11 mM glucose, pH 7.4) with a Polytron homogenizer at setting 7 for 30 seconds. Aliquots of membranes (5 mg/ml protein) were stored in liquid nitrogen until used.
The binding assay was set up in Beckman deep-well polypropylene plates with a total volume of 250 μl containing: drug (10^−5M to 10^−12M), cell membranes, and […] [^125I]-RTI-55 (Perkin Elmer, NEX-272; specific activity 2200 Ci/mmol). The reaction was incubated by gentle agitation for 90 minutes at room temperature and was terminated by filtration through Whatman GF/C filter plates using a Brandel 96-well plate harvester. Scintillation fluid (100 μl) was added to each well, and bound [^125I]-RTI-55 was determined using a Wallac Trilux Beta Plate Counter. Test compounds were run in duplicate, and specific binding was defined as the difference between binding in the presence and absence of 10 μM desipramine.
Excel and GraphPad Prism software were used for data calculation and analysis. IC50 values were converted to Ki values using the Cheng-Prusoff equation. The Ki values (nM) for the hNET are reported below in Table 1.

On to `COc1cc(Cl)ccc1O[C@@H](c1ccccc1)[C@@H]1CNCCO1.Cl` [Example 38, (2S)-2-[(1S)-(4-chloro-2-methoxyphenoxy) (phenyl)methyl] morpholine hydrochloride], for which the Ki was 7.6 nM.

Consider `COc1cc(Cl)ccc1O[C@H](c1ccccc1)[C@@H]1CNCCO1` [Example 107, (2S)-2-[(1R)-(4-chloro-2-methoxyphenoxy) (phenyl)methyl]morpholine hydrochloride], for which the Ki was found to be 183 nM.

Turning to `COc1cc(Cl)ccc1O[C@@H](c1ccccc1)[C@H]1CNCCO1` [Example 108, (2R)-2-[(1S)-(4-chloro-2-methoxyphenoxy) (phenyl)methyl]morpholine hydrochloride], the Ki is 2020 nM.

As to `COc1cc(Cl)ccc1O[C@H](c1ccccc1)[C@H]1CNCCO1` [Example 109, (2R)-2-[(1R)-(4-chloro-2-methoxyphenoxy) (phenyl)methyl]morpholine succinate], the inhibitory constant (Ki) came to 97.9 nM.
